Amino acid sequences for entries named in this document (tags omitted).
Importin subunit beta-1 (Homo sapiens), Q14974, UniProt Q14974, whole entry, looked up: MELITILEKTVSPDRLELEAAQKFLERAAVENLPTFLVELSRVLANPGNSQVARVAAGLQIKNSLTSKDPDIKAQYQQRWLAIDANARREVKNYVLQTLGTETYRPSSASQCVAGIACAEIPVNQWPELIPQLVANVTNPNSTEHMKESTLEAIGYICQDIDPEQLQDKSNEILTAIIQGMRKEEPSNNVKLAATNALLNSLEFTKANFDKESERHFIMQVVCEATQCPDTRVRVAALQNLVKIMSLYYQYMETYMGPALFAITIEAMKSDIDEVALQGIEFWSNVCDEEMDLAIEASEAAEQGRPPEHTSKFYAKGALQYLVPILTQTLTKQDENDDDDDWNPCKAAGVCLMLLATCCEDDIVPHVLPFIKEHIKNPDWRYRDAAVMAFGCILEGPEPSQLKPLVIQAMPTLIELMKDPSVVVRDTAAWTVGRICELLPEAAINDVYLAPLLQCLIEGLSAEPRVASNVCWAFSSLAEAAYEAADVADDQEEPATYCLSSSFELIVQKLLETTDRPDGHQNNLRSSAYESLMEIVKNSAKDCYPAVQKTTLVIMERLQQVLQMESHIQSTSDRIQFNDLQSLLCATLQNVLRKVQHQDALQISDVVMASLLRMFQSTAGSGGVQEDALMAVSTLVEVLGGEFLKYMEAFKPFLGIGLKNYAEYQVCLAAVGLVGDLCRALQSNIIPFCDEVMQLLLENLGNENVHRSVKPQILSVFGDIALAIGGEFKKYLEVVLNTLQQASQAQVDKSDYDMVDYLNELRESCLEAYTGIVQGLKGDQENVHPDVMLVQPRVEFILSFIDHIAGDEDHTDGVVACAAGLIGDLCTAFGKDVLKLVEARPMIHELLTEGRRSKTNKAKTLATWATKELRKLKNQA

# Screening data (PubChem BioAssay)
# a7 integrin act – qHTS for Activators of Integrin-Mediated Alleviation for Muscular Dystrophy | hit rate 0.064% among 350,000 | Potency, µM (top dose mostly 38.3 µM), inactives show at the highest dose activation, most hits filed as activators | alpha7betagal myoblasts, beta-gal FDG fluorescence, 48 h; active means well fitted curve in the direction sought with a large enough effect; inconclusive means small, poorly fitted or top-dose-only effect, or another doubt; inactive means no such curve, though single readings can be large; an effect the other way counts as inactive or inconclusive;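 further: potency means the concentration at half of the fitted maximal effect; 100% = response of the positive control SU9516; nearly all actives have a fitted effect of over 60% in size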
#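 alpha7betagal+/- myoblasts (passage 13, 250/well) treated 48 h at 37C with compounds at 1:260 dilution of DMSO stock. Lysed, then beta-galactosidase activity read as FDG fluorescence (ex 480/em 540) after 30 min, with pre-read for autofluorescence.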
# MmCpn inh – Inhibitors of TCP-1 ring complex (TRiC) of Methanococcus maripaludis (MmCpn): qHTS; purified Mm-Cpn ATPase, ADP Transcreener TR-FRET; hit rate 0.031% among 330,000; AID 504842, 2011; Potency, µM (titrated, usually from 76.9 µM), inactives show top-dose activity, negative = inhibition, most hits filed as inhibitors; active means well fitted curve in the direction sought with a large enough effect; inconclusive means small, poorly fitted or top-dose-only effect, or another doubt; inactive means no such curve, though single readings can be large; an effect the other way counts as inactive or inconclusive; further: potency means the concentration at half of the fitted maximal effect; on the % scale 0 is the no-effect control and ±100 the full control effect; nearly all actives have a fitted effect of over 80% in size
#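 TR-FRET (320 nm excitation; 590 and 665 nm emission) reports ADP made from 10 uM ATP by 25 nM enzyme; compounds were preincubated 10 min, reaction run 30 min, both at 37°C.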
# CCT modulator – High-Throughput Screening for Modulators of Cytosolic Chaperonin Activity | activity change, % (test concentration not listed), hits read low | AID 651819, 2012 | hit rate 0.3% among 360,000 | purified chaperonin ATPase assay, HTRF ADP detection, 30 min; in the data active means activity change below about -30%; further: on the % scale 0 is the no-effect control and ±100 the full control effect
#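 TRiC at 40 or 20 nM final (batch-dependent) in 30 mM Tris pH 7.4, 100 mM KCl, 5 mM MgCl2, 1 mM DTT, with compound at single 76 uM and 10 uM ATP, 30 min at 37 deg C. ADP detected by HTRF Transcreener, 665/615 ratio.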
# Rango complex inh – qHTS Assay for Inhibitors of Rango (Ran-regulated importin-beta cargo) - Importin beta complex formation; Rango CFP/YFP FRET sensor + importin beta, 45 min; hit rate 0.031% among 340,000; Importin subunit beta-1 (Homo sapiens), Q14974; Potency, µM (highest dose often 92.2 µM), without a hit: top-dose inhibition of complex formation;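 further: potency means the concentration at half of the fitted maximal effect; 0% = DMSO wells and 100% = buffer wells lacking importin beta; nearly all actives have a fitted effect of over 15% in size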
#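 FRET biosensor (snurportin 1 IBB flanked by EYFP and cerulean), 50 nM, with compound 5 min, then 0.125 microM importin beta in PBS, 1 mM DTT, 0.02% Tween-20, 0.1% BSA. CFP/YFP ratio read after 45 min at room temperature; pre-read flags interference.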
# Rango release inh – qHTS Assay for Inhibitors of RanGTP induced Rango (Ran-regulated importin-beta cargo) - Importin beta complex dissociation. Snurportin-1 (Homo sapiens) + GTP-binding nuclear protein Ran (Homo sapiens) + Importin …. Biochemical FRET Rango-importin beta, RanGTP-induced dissociation. Potency, µM (series often up to 46.1 µM), without a hit: at the top dose activity change, negative = inhibition. hit rate 0.071% among 340,000; further: potency means the concentration at half of the fitted maximal effect; % of control where 0% means no effect; nearly all actives have a fitted effect of over 45% in size
#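 FRET read at 45 min, room temperature: inhibitors block the CFP/YFP signal rise when RanGTP (0.6 uM Ran, 2 mM GTP, 0.2 uM RCC1) frees Rango (0.1 uM) from importin beta (0.25 uM). Pre-read after 5 min compound exposure flags interference.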
# * marks the source's active call; other numbers are inactive results; ? = inconclusive; · = no result; [ ] = dose if it differs, or a comment. An excerpt weighted towards active compounds, which were near 0.51% of everything screened. Unless noted, the call rests on the fitted dose curve.
SMILES | Rango complex inh | MmCpn inh | a7 integrin act | CCT modulator | Rango release inh
COc1cc(NS(=O)(=O)c2ccc(NC(=S)NC(=O)c3sc4ccccc4c3Cl)cc2)nc(OC)n1 | -5.9% | -14.3% | -17.0% | -2.2 | -25.7%
C=CCn1cc(/C=C2\SC(N3CCOCC3)=NC2=O)c2ccccc21 | ? | -5.9% | -32.6% | -1.9 | 16.4µM*
O=C1N=C(N2CCOCC2)S/C1=C\c1cccs1 | -1.0% | 0.4% | -2.5% | -0.5 | 8.1%
CC1(C(=O)NS(=O)(=O)c2ccc(C#N)cc2)CCN1C(=O)Cc1cc(F)ccc1F (stereo not drawn) | · | · | · | -5.8 | ·
CN1/C(=C/C(=S)NC(=O)C2(C)CC2(Cl)Cl)C(C)(C)c2ccccc21 (stereo not drawn) | ? | -3.3% | -42.0% | -0.9 | 0.517µM*[inhibitor]
NC(=S)NN=C1CCSCC1 | 3.2% | · | 0.0% | -33.5* | -15.2%
NC(=S)NN=C1CCCCCCCCC1 | -1.6% | · | 14.6% | 0.2 | -1.2%
O=C(c1[nH]c(C(F)(F)F)nc1-c1ccccc1)N1CCN(c2c(Cl)cncc2Cl)CC1 | · | · | · | -3.4 | ·
CC1=C(C(=O)Nc2ccccc2)C(c2ccc[nH]2)n2ncnc2N1 (stereo not drawn) | · | 0.2% | · | · | ·
CC1(C)CC(=O)CC(=NCC(=O)O)C1 | ? | -0.8% | ? | 0.8 | 25.9µM*
CCOC(=O)c1ccccc1NC(=O)c1cncc(Br)c1 | -0.1% | -17.7% | 28.7% | -37.3* | -8.7%
Fc1ccccc1-n1c(-c2ccc3ccccc3n2)n[nH]c1=S | -0.7% | 0.0% | 5.5% | -1.2 | -1.0%
S=c1[nH]nc(-c2ccc3ccccc3n2)n1-c1ccccc1 | 1.6% | -7.4% | 21.8% | -69.5* | -18.1%
Cc1nc(-c2cccc(-c3noc(C)n3)c2)no1 | -1.1% | 2.2% | 6.8% | -43.7* | -5.0%
CCCCn1c(C)cc2c(c1=O)C1O[C@](c3ccc(OC)cc3)(Cc3cc(OC)c(OC)cc31)O2 | · | 0.8%[15.4 µM] | · | · | ·
CCOC(=O)C(=O)Nc1ccc(Oc2ccccc2)cc1 | -1.2% | -1.7%[15.4 µM] | 24.7% | 0.6 | 0.4%
CCOC(=O)C(=O)Nc1ccc(F)cc1 | 2.3% | 1.0% | 23.7% | -83.8* | 22.5%
CN(CC(=O)Nc1ccc(F)c(F)c1)S(=O)(=O)c1cccs1 | 5.7% | 0.9% | 12.6% | -39.9* | -1.3%
CC(=O)N(/N=C1\Sc2ccccc2C1=O)c1ccccc1C | ? | 0.4% | -31.2% | -1.8 | 8.2µM*
COc1ccc(S(=O)(=O)NC(=O)C2(C)CCN2C(=O)Cc2cc(C)cc(C)c2)cc1 (stereo not drawn) | · | · | · | 1.8 | ·
CCN1C(=O)[C@H]2[C@@H](c3ccc(-c4cccc(Cl)c4)cc3)N[C@@](Cc3ccccc3)(C(=O)OC)[C@H]2C1=O | -0.1% | -7.1% | 5.2% | -3.4 | 9.9%
CCN1C(=O)[C@H]2[C@@H](c3ccc(-c4ccc(Cl)c(Cl)c4)c(OC)c3)N[C@@](Cc3ccccc3)(C(=O)OC)[C@H]2C1=O | -3.2% | -2.4% | 5.7% | -58.1* | 0.6%
CCOCCn1c(=O)c2c(nc3n2CCN3c2ccc(C)c(C)c2)n(C)c1=O | · | 0.9% | · | · | ·
CCCCC[C@]12Cc3cc(OC)c(OC)cc3C(O1)c1c(cc(C)n(-c3ccccc3)c1=O)O2 | · | -1.1%[15.4 µM] | · | · | ·
O=C(NC1CCCCC1)c1ccc(CS(=O)(=O)Cc2ccccc2F)o1 | -0.2% | 0.6% | -11.6% | -5.5 | 2.0%

# An excerpt of these results, as labelled records.
CC(=O)N(/N=C1\Sc2ccccc2C1=O)c1ccccc1C
  Rango complex inh: ?
  MmCpn inh: 0.4%
  a7 integrin act: -31.2%
  CCT modulator: -1.8
  Rango release inh: 8.2µM*
COc1ccc(S(=O)(=O)NC(=O)C2(C)CCN2C(=O)Cc2cc(C)cc(C)c2)cc1 (stereo not drawn)
  Rango complex inh: ·
  MmCpn inh: ·
  a7 integrin act: ·
  CCT modulator: 1.8
  Rango release inh: ·
CCN1C(=O)[C@H]2[C@@H](c3ccc(-c4cccc(Cl)c4)cc3)N[C@@](Cc3ccccc3)(C(=O)OC)[C@H]2C1=O
  Rango complex inh: -0.1%
  MmCpn inh: -7.1%
  a7 integrin act: 5.2%
  CCT modulator: -3.4
  Rango release inh: 9.9%
CCN1C(=O)[C@H]2[C@@H](c3ccc(-c4ccc(Cl)c(Cl)c4)c(OC)c3)N[C@@](Cc3ccccc3)(C(=O)OC)[C@H]2C1=O
  Rango complex inh: -3.2%
  MmCpn inh: -2.4%
  a7 integrin act: 5.7%
  CCT modulator: -58.1*
  Rango release inh: 0.6%

# (further entries)
SMILES | Rango complex inh | MmCpn inh | a7 integrin act | CCT modulator | Rango release inh
O=C(NC1CCCC1)c1ccc(CS(=O)(=O)Cc2ccccc2F)o1 | 5.5% | -0.9% | 4.47µM* | -0.9 | -4.0%
COC(=O)C(=O)/C=C(\O)c1c(C)cc(C)cc1C | 65.1µM* | -0.6% | 4.6% | -1.0 | 6.8%
COc1ccc(CCNC(=O)c2nn(C)c3c2CS(=O)(=O)c2ccccc2-3)cc1OC | ? | 0.3% | 4.47µM* | -2.5 | ?
Cc1ccc(CCNC(=O)c2nn(C)c3c2CS(=O)(=O)c2ccccc2-3)cc1 | 3.3% | 1.4% | 29.7% | 0.8 | 23.6%
O=C1N(Cc2cccnc2)C[C@@H]2C[C@@H](c3cccc(OC4CCCC4)c3)N3CCC[C@@]123 | 0.0% | -0.4% | -11.8% | -50.9* | 3.4%
NS(=O)(=O)c1cccc(NC(=O)CCCNC(=O)c2ccc(Cl)cc2)c1 | 16.4µM* | 1.9% | 28.9% | -0.7 | 8.0%
CC(=O)c1cccc(NC(=O)CCCNC(=O)c2ccc(Cl)cc2)c1 | ? | 5.3% | 0.0% | -0.5 | -0.1%
CNC(=O)c1ccsc1NC(=O)c1ccc(S(=O)(=O)N2CCCc3ccccc32)cc1 | ? | 28.2µM* | -27.2% | -0.3 | 4.6%
O=C(Nc1nc2c(s1)CCCC2)c1ccc(S(=O)(=O)N2CCCc3ccccc32)cc1 | 2.0% | -9.6% | -12.0% | -1.3 | -6.4%
CN(C)CCCCOc1ccc(Br)cc1Cl | 2.5% | -5.6% | -68.6% | -58.6* | 2.8%
COCCCNCCCCOc1ccc(Br)cc1Cl | -0.4% | 0.6% | -56.9% | 0.5 | -5.5%
Cc1ccc(CNC(=O)CC[C@H]2O[C@@H](n3cc(C)c(=O)[nH]c3=O)C[C@@H]2O)o1 | · | · | · | -0.5 | ·
COc1cc(C(C(=O)NC2CCCCC2)N(C(=O)c2snc(C(N)=O)c2N)c2ccc(C)cc2)ccc1O (stereo not drawn) | -4.8% | -0.9% | 7.94µM* | -1.4 | ?
Cc1ccc(N(C(=O)c2snc(C(N)=O)c2N)C(CC(C)C)C(=O)NC2CCCC2)cc1 (stereo not drawn) | -0.2% | -0.2% | 18.4% | -2.5 | 11.0%
CCCCC(C(=O)NC1CCCC1)N(C(=O)c1snc(C(N)=O)c1N)c1ccc(C)cc1 (stereo not drawn) | -2.7% | -1.5% | 10µM* | -3.3 | 2.7%
Cc1nn(CC(=O)Nc2ccc3c(c2)OCCO3)c(C)c1[N+](=O)[O-] | -1.0% | 0.0% | -40.8% | -32.5* | -14.4%
Cc1ccc(NC(=O)Cn2nc(C)c([N+](=O)[O-])c2C)cc1C | -0.8% | -3.7% | -15.5% | 0.5 | 0.2%
N/C(=N\OC(=O)c1ccccc1)C(Cc1ccccc1)C(=O)NOC(=O)c1ccccc1 (stereo not drawn) | -0.1% | · | -32.6% | 0.6 | -7.8%
O=C(Oc1ccc(C(=S)N2CCOCC2)cc1)c1cccc(Cl)c1 | -0.4% | -5.2% | 18.3% | -63.3* | -6.3%
Cc1cc(C(C)(C)CC(C)(C)C)ccc1OCCOCC[N+](C)(C)Cc1ccccc1 | 65.1µM* | -1.9% | · | -2.7 | 8.3%
Cc1cccc(C(O)c2ncc(-c3ccccc3)[nH]2)c1C (stereo not drawn) | · | · | · | -0.5 | ·
